Measurements from PMC12836348, “Alanine Mutagenesis Identifies Specific Amino Acids of Nemertide Alpha‑1 Activity and Its Binding to Target Receptors” (Journal of Natural Products, 2025).

The chains behind the UniProt entries cited, without tags or fusion partners.
UniProt Q14524, whole entry: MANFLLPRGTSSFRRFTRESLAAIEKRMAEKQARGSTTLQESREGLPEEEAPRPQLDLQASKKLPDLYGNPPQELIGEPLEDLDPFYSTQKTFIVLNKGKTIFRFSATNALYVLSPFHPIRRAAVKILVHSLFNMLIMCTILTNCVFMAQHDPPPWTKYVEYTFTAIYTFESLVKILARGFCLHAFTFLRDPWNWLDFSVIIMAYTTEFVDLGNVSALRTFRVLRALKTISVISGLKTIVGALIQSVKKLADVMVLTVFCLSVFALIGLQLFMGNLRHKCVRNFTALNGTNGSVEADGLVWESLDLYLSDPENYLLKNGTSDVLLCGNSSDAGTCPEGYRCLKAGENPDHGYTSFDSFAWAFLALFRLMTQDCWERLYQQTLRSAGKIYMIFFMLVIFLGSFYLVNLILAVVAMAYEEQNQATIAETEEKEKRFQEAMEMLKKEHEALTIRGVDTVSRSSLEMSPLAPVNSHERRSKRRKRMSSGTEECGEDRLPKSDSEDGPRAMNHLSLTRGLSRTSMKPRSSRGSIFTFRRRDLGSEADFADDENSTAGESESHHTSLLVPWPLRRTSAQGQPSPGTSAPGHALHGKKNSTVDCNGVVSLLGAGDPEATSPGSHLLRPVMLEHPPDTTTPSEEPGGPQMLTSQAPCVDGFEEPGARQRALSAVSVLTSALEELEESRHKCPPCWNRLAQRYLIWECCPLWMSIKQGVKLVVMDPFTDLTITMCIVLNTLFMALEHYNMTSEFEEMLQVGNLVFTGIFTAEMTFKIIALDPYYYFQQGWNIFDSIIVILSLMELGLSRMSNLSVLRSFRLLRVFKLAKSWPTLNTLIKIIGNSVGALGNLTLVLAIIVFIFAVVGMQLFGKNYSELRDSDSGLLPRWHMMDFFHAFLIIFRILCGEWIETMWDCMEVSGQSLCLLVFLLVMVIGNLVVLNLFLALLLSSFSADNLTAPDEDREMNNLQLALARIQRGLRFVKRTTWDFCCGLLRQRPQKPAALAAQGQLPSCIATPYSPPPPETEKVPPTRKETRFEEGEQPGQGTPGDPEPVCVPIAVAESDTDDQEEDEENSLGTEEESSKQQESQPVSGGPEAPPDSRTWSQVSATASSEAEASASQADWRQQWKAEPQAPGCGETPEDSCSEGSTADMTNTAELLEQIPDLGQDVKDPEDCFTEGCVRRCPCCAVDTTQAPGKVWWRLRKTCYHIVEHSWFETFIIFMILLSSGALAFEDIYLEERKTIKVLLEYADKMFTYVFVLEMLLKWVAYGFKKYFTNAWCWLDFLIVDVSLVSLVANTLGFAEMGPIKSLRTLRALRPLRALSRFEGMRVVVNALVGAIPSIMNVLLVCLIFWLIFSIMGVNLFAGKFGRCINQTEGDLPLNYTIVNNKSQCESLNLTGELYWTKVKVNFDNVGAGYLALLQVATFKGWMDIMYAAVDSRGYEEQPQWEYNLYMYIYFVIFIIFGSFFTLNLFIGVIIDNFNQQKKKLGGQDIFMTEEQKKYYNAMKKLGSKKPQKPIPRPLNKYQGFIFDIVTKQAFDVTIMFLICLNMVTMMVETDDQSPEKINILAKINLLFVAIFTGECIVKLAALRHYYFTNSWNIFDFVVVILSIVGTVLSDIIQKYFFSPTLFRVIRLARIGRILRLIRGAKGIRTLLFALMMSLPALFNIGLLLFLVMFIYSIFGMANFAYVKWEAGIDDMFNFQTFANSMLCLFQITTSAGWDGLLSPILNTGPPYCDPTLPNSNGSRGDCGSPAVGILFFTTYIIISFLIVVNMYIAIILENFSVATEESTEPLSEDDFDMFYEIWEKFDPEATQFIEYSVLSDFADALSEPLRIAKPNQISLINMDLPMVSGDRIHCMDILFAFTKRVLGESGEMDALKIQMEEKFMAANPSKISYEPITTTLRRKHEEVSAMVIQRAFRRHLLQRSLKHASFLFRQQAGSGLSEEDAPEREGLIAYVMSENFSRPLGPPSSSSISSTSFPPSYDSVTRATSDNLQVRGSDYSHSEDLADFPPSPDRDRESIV

Legend:
Cav3.3 = test: Ion channel panel, Cav3.3; format: cell-based; parameters: key: “+” means tested and produced effect; “–“ means tested but no effect; conditions: S12A at 5 μM; Xenopus oocytes, n ≥ 3
hNaV1.5 = biological target: T1, hNaV1.5 (Homo sapiens, UniProt Q14524); test: Two-electrode voltage clamp, Nav1.5 in Xenopus laevis oocytes; format: cell-based; parameters: key to effect on Nav1.5: “+” means tested and produced effect; “–“ means tested but no effect; conditions: n ≥ 3
T1 construct: expressed in transfected cells; host or cells: Xenopus laevis oocytes (cRNA injection)

CC[C@H](C)[C@@H]1NC(=O)[C@@H](NC(=O)CN)CSSC[C@@H]2NC(=O)[C@@H]3CSSC[C@@H](C(=O)N[C@@H](CC(N)=O)C(=O)N4C[C@H](O)C[C@H]4C(=O)N4C[C@H](O)C[C@H]4C(=O)N[C@@H](CC(N)=O)C(=O)N[C@@H](CCC(N)=O)C(=O)O)NC(=O)[C@H](CCCCN)NC(=O)[C@H](Cc4ccccc4)NC(=O)[C@H](CC(N)=O)NC(=O)[C@H](Cc4c[nH]c5ccccc45)NC(=O)CNC(=O)[C@H](CSSC[C@H](NC(=O)[C@H](Cc4ccccc4)NC(=O)[C@H](CO)NC(=O)CNC(=O)[C@H]([C@@H](C)O)NC(=O)[C@H](C)NC1=O)C(=O)N[C@@H]([C@@H](C)O)C(=O)N[C@@H](CC(C)C)C(=O)N[C@@H](C)C(=O)N[C@@H](CCCCN)C(=O)NCC(=O)N3)NC(=O)[C@H](CC(N)=O)NC(=O)[C@H](CCCCN)NC(=O)[C@H]([C@@H](C)O)NC2=O [Peptide S12A]
effect on Cav3.3 (Cav3.3): –
effect on Nav1.5 (hNaV1.5; S12A at 5 μM, Xenopus oocytes): –
EC50 Nav1.5 (hNaV1.5; ex vivo, two-electrode voltage clamp in Xenopus laevis oocytes, Hill fit, highest tested concentration 50 μM): no detectable activity; also recorded: inactive at the tested concentration

Entries after “also recorded” stand apart in the source; their conditions may differ.
